Experimental data as given in patent US20030194732A1, “Interferon-alpha induced gene” (priority 2000, published 2003).

System: HuIFRG46/ADIR mRNA
Assay: HuIFRG46/ADIR mRNA, Northern blot, interferon-treated HeLa cells in vitro
Format: cell-based, human
Conditions: HeLa cells, 10,000 IU, eight hours
Method: Male DBA/2 mice were injected intraperitoneally (ip) or oromucosally (om) with 100,000 IU of recombinant murine IFN-α purchased from Life Technologies Inc. For ip administration, animals were treated with 100,000IU IFN-α in 200 μl of PBS or treated with an equal volume of PBS alone. For om administration, 10 μl of IFN-α or excipient was applied with a 1 to 20 μl capacity adjustable micropipette to the nostrils of the mice. Four hours after ip or om treatment, the animals were sacrificed by cervical dislocation and tissue from the oral cavity and the spleen were removed using conventional procedures. […] The blots were first exposed to autoradiography and then quantified using a Phospholmager according to the manufacturer's instructions.
HeLa cells were treated in vitro with 10,000 IU of recombinant human IFN-α2 (Intron A from Schering-Plough) in PBS or with an equal volume of PBS alone. […] Enhanced levels of mRNA for HUIFRG46/ADIR protein (approximately 10-fold) were detected in samples of RNA extracted from IFN-α treated HeLa cells compared to samples treated with PBS alone.

IFN-α2: recombinant human IFN-α2 (Intron A from Schering-Plough) [reference compound]
enhanced levels of mRNA for HuIFRG46/ADIR protein vs PBS alone: approximately 10 fold
